Sequences of proteins named here, by UniProt entry; tags and fusion partners are left off. Residues count along the entry.
UniProt P05164, 279-745 limits assumed: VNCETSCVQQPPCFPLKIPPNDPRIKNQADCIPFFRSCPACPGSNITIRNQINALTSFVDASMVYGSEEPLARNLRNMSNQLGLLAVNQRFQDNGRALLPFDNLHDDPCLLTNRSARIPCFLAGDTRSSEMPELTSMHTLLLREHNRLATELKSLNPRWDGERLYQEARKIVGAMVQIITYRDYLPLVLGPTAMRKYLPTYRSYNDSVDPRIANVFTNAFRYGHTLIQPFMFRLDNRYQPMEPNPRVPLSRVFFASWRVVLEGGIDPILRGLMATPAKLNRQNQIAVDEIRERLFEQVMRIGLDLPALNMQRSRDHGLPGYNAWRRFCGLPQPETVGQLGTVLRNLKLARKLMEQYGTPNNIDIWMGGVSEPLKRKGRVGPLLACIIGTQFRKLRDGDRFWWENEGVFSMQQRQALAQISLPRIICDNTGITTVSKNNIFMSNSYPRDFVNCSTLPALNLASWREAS
UniProt P05164, 165-273 limits assumed: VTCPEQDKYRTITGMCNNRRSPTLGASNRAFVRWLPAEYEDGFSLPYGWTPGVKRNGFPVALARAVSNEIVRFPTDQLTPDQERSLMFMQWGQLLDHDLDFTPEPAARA

According to patent publication US9771332B2, “2-thiopyrimidinones” (Pfizer Inc., priority 2015, dated 2017):

Biological target: T1, MPO (Homo sapiens, UniProt P05164)
T1 construct: endogenous in cells; host or cells: human whole blood leukocytes, LPS-stimulated
Experiment: Human Whole Blood Assay for Irreversible Inhibition of MPO
Assay type: cell-based
Details: LPS-stimulated human whole blood, 4 hour incubation; irreversible inhibition of active MPO
Protocol: To measure the inhibition of MPO activity in a biological system in the present invention, bioassays were performed with human whole blood that was collected from medication-free, human volunteers in heparin treated tubes (APP Pharmaceuticals, LLC, cat # NDC#63323-047-10, #4710). Blood was aliquoted and treated with different concentrations of the MPO inhibitor or vehicle control and co-treated with or without bacterial lipopolysaccharide (LPS, InVivogen) to stimulate blood leukocytes to simultaneously generate H2O2 (a required MPO substrate) and the release of MPO. After a 4 hour incubation at room temperature the plasma fraction was collected following a 2000×g centrifugation at 4° C.
The plasma fraction was divided in two for analysis of total MPO and active MPO. The total MPO content was determined using a standard sandwich ELISA (capture and detection antibodies: Cell Sciences, Cat# HP9048, and Cell Sciences, Cat# HM2164, clone 266-6K1) and calculated relative to a standard curve of purified MPO (myeloperoxidase, Calbiochem, cat#475911) that was prepared by dilution in the autologous donor plasma. The MPO activity is determined by capturing the total MPO from plasma using the capture step as described for the above ELISA method. […]

IC50: 1900 nM
SMILES: COc1ccc(Cl)cc1-c1cc(=O)[nH]c(=S)n1CC(N)=O [F, 2-(6-(5-chloro-2-methoxyphenyl)-4-oxo-2-thioxo-3,4-dihydropyrimidin-1(2H)-yl)acetamide]
